Assay results from paper PMC12196810, “A Dual Bioassay for Evaluation of Embryotoxicity and Acute Toxicity of Common Solvents and Surfactants in Artemia salina” (Toxics, 2025).

Tested on: Artemia salina nauplii
Experiment: Brine shrimp lethality test
Details: 24 and 48 h, 0.05–5% (w/v)

sodium xylenesulfonate [SXS]
toxicity in the lethality test, in words: highly toxic
